Experimental data published in US8586579B2, “Anellated pyridine compounds” (Hoffmann-La Roche Inc., priority 2010, dated 2013).

The chains behind the UniProt entries cited, without tags or fusion partners.
UniProt P14416, whole entry: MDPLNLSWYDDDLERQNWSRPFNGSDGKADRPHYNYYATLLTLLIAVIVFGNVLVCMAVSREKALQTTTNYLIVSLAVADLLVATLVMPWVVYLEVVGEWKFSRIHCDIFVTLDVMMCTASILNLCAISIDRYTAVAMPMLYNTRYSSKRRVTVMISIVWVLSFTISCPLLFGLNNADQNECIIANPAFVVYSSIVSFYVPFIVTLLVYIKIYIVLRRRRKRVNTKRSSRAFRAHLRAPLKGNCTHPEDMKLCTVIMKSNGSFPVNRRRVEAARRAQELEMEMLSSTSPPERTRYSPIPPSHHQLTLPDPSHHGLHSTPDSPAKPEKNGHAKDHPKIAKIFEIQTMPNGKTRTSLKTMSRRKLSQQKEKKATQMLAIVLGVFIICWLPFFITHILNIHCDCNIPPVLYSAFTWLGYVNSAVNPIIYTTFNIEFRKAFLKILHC
UniProt P28223, whole entry: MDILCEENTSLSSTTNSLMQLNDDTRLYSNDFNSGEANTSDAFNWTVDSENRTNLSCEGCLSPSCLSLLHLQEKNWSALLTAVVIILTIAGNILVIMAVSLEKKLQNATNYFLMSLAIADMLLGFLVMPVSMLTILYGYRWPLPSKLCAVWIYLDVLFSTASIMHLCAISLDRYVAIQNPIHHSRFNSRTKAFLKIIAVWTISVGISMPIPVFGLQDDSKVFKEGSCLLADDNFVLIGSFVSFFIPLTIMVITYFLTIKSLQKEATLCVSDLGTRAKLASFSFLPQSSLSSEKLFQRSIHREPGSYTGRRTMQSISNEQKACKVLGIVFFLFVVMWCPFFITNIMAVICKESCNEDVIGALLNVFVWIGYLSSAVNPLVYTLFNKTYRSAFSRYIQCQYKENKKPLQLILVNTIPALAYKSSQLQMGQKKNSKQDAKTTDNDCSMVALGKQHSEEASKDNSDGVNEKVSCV
UniProt P35462, whole entry: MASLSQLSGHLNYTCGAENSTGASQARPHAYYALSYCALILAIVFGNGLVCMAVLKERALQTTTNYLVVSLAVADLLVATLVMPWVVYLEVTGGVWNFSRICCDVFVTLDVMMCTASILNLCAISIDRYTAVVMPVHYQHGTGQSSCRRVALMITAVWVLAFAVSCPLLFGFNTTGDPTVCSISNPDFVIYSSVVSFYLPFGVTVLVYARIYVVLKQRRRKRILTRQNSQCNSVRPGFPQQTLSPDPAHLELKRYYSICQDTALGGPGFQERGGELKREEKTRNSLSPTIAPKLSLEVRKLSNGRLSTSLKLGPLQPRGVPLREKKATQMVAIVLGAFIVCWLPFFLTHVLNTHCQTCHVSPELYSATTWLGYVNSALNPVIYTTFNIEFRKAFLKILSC

Legend:
human D2 receptor = human D2 receptor (Homo sapiens (Human), UniProt P14416); assay: Radioligand binding assay, [3H]-spiperone, human D2 receptor; settings: membranes of HEK293 EBNA cells expressing human D2; 0.7 nM [3H]-spiperone
Procedure: (§1) HEK293 EBNA cells were transiently transfected with expression plasmids encoding for the human D2 or D3 or for the human 5-HT2A receptor, respectively. The cells were harvested 48 h post-transfection, washed three times with cold PBS and stored at −80° C. prior to use. The pellet was suspended in cold 50 mM Tris-HCl buffer comprising 10 mM EDTA (pH 7.4) and was homogenized with a Polytron (Kinematica AG, Basel, Switzerland) for 20-30 sec at 12.000 rpm. After centrifugation at 48.000×g for 30 min at 4° C., the pellet was resuspended in cold 10 mM Tris-HCl buffer comprising 0.1 mM EDTA (pH 7.4), homogenized, and centrifuged as above. This pellet was further resuspended in a smaller volume of ice cold 10 mM Tris-HCl buffer comprising 0.1 mM EDTA (pH 7.4) and homogenized with a Polytron for 20-30 sec at 12.000 rpm. The protein content of this homogenate was determined with the Bio-Rad (Bradford) Protein Assay (Biorad Laboratories GmbH, München, Germany) according to the instructions of the manufacturer using gamma globulin as the standard. This homogenate was stored at −80° C. in aliquots and thawed immediately prior to use. […]
(§2) The binding affinity (Ki) of the compounds was determined using radioligand binding. […] The nonspecific binding was determined with equally composed reaction mixtures in the presence of 10 μM unlabelled spiperone. Per well 45 μl of Microscint 40 (Perkin Elmer, Schwerzenbach, Switzerland) was added, plates for sealed, shaken for 20 min and counted for 3 min on a Topcount Microplate Scintillation Counter (Can berra Packard SA, Zürich, Switzerland) with quenching correction.
The CPM value for each duplicate of a concentration of competing compound was averaged (y1), then the % specific binding was calculated according to the equation (((y1−non-specific)/(total binding−non-specific))×100). […] The affinity constant (K) was calculated using the Cheng-Prusoff equation Ki=(IC50/1+([L]/Kd), where [L] is the concentration of radioligand and Kd is the dissociation constant of the radioligand at the receptor as determined by the saturation isotherm.

human 5-HT2A receptor = human 5-HT2A receptor (Homo sapiens (Human), UniProt P28223); assay: Radioligand binding assay, [3H]-ketanserin, human 5-HT2A receptor; settings: membranes of HEK293 EBNA cells expressing human 5-HT2A; 1.1 nM [3H]-ketanserin
Procedure: as §1, with “This pellet was further resuspended in a smaller volume of ice cold 10 mM Tris-HCl buffer comprising 0.1 mM EDTA (pH 7.4) and homogenized with a Polytron for 20-30 sec at 12.000 rpm.” left out, “standard.” for “standard. This homogenate was stored at −80° C. in aliquots and thawed immediately prior to use.”
as §2, with “correction. […]” for “correction.”

human D3 receptor = human D3 receptor (Homo sapiens (Human), UniProt P35462); assay: Radioligand binding assay, [3H]-spiperone, human D3 receptor; settings: membranes of HEK293 EBNA cells expressing human D3; 0.5 nM [3H]-spiperone
Procedure: as §1, with “This pellet was further resuspended in a smaller volume of ice cold 10 mM Tris-HCl buffer comprising 0.1 mM EDTA (pH 7.4) and homogenized with a Polytron for 20-30 sec at 12.000 rpm.” left out, “standard.” for “standard. This homogenate was stored at −80° C. in aliquots and thawed immediately prior to use.”
as §2, with “correction. […]” for “correction.”

| SMILES | Ki (human D2 receptor) [µM] | Ki (human 5-HT2A receptor) [µM] | Ki (human D3 receptor) [µM] |
| --- | --- | --- | --- |
| O=C(N[C@H]1CC[C@H](CCN2CCN(c3nccc4c3CCO4)CC2)CC1)C(O)C(F)(F)F (mixture of isomers) [Example 112, trans-(RS)—N-(4-{2-[4-(2,3-Dihydro-furo[3,2-c]pyridin-4-yl)-piperazin-1-yl]-ethyl}-cyclohexyl)-3,3,3-trifluoro-2-hydroxy-propionamide] | 0.843 | 0.0114 | – |
| O=C(N[C@H]1CC[C@H](CCN2CCN(c3nccc4c3CCO4)CC2)CC1)C1CCCO1 (mixture of isomers) [Example 43, trans-N-(4-{2-[4-(2,3-Dihydrofuro[3,2-c]pyridin-4-yl)-piperazin-1-yl]-ethyl}-cyclohexyl)-rac-tetrahydrofuran-2-carboxamide] | 1.04 | – | 0.12 |
| O=C(N[C@H]1CC[C@H](CCN2CCN(c3nccc4c3CCO4)CC2)CC1)C1CCCOC1 (mixture of isomers) [Example 53, rac-Tetrahydro-pyran-3-carboxylic acid trans-(4-{2-[4-(2,3-dihydro-furo[3,2-c]pyridin-4-yl)-piperazin-1-yl]-ethyl}-cyclohexyl)-amide] | 0.767 | 0.00637 | – |
